Experimental data taken from PubChem BioAssay (Tox21).
Where “and” joins values, the source holds several entries; their conditions need not be identical. Equal entries are not always repeated. Only a part is listed here, and it is no random draw. Records with an inconclusive call do not appear. Calls of active or inactive are those of the source. Unless noted, calls come from the whole dose curve; as a rule, active = well fitted curve in the direction sought with a large enough effect in the repeat runs; inconclusive = weak or mixed curves; inactive = no such curve, though single readings can be large; an effect the other way counts as inactive or inconclusive.

Chains of the proteins cited; added tags and fusions are not shown.
UniProt P08659, whole entry: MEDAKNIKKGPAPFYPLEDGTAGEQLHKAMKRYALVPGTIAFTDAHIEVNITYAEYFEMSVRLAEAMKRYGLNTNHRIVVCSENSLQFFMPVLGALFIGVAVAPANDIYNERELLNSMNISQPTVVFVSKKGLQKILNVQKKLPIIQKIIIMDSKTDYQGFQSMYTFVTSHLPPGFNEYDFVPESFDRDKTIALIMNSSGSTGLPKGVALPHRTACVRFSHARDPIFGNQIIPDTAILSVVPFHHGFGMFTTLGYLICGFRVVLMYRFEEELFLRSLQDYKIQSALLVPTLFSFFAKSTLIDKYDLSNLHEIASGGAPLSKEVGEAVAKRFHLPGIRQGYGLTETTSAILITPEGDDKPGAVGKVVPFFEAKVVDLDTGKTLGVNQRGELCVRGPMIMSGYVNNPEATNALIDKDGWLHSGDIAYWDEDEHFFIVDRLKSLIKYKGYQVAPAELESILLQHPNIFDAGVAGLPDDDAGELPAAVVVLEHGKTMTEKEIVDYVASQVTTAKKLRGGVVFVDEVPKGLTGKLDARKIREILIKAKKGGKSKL
UniProt P16473, whole entry: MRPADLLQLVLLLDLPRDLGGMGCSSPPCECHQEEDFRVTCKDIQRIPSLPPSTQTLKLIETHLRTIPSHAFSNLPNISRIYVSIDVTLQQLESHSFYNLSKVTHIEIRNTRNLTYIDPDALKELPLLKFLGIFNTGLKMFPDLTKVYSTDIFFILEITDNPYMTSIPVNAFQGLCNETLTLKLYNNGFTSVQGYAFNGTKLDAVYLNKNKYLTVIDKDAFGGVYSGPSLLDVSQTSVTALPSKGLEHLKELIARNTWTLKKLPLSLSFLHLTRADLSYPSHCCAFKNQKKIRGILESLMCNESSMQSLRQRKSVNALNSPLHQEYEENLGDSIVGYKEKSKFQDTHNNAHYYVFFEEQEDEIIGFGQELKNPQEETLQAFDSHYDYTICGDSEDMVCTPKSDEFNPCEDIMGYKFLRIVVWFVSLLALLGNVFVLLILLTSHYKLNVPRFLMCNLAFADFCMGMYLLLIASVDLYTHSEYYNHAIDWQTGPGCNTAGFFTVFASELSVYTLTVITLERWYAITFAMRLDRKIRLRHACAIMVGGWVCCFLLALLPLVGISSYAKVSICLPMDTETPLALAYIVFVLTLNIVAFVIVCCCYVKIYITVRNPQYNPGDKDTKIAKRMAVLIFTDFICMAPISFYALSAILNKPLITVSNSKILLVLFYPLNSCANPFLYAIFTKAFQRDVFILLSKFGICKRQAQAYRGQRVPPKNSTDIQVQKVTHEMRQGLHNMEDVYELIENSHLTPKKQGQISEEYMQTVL
UniProt Q14994, whole entry: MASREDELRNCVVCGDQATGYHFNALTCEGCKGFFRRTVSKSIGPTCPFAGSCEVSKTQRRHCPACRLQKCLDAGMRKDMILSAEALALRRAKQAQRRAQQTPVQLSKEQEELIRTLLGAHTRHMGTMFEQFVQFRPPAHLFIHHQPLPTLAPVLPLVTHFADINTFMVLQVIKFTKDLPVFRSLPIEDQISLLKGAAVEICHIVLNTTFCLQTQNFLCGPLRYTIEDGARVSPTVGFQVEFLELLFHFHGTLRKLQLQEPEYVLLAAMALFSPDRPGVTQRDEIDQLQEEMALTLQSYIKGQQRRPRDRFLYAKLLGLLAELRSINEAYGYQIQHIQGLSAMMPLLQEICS

What was measured:
[1] = target: Luciferin 4-monooxygenase (Photinus pyralis) (UniProt P08659); assay: qHTS assay to identify small molecule inhibitors of firefly luciferase (AID 1224835); note: nearly all actives have a fitted effect of over 25% in size
In short: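 Biochemical qHTS: compounds run as interplate titrations against purified firefly enzyme, with D-luciferin and ATP each at its KM concentration. Light output recorded by CCD imaging.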

[2] = qHTS assay to identify small molecule agonists of the constitutive androstane receptor (CAR) signaling pathway - cell viability counter screen (AID 1224836); details: HepG2-CYP2B6-hCAR viability, CellTiter-Fluor, 23 h; at 92.4 µM (top of the series); PK11195 added to every well; note: nearly all actives have a fitted effect of over 45% in size
In short: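 Double-stable HepG2 hepatoma cells (hCAR plus CYP2B6-2.2kb) are treated for 23 h at 37 C with test compounds in 15-point concentration series. PK11195 at 0.75 uM final is co-added. Cell viability is quantified by CellTiter-Fluor.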

[3] = qHTS assay to identify small molecule antagonists of the constitutive androstane receptor (CAR) signaling pathway - cell viability counter screen (AID 1224837); details: HepG2-CYP2B6-hCAR viability, CellTiter-Fluor, 23 h, co-treated with 50 nM CITCO; at 92.4 µM (top of the series) unless noted; note: nearly all actives have a fitted effect of over 45% in size
In short: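 HepG2 cells stably expressing hCAR and a CYP2B6-2.2kb reporter were plated and pre-incubated 4 hr at 37 C/5% CO2, then given compounds at 15 concentrations plus 50 nM CITCO (final). After 23 hr, viability was read by CellTiter-Fluor fluorescence.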

[4] = qHTS assay to identify small molecule antagonists of the estrogen related receptor signaling pathway with the pleiotropic PPARgamma coactivator (PGC) from Tox21 10K library - cell viability counter screen (AID 1224840; active = well fitted cell-killing curve with a large enough effect in the repeat runs, not every such curve was filed as active; note: nearly all actives have a fitted effect of over 40% in size); details: PGC/ERR reporter cells viability, CellTiter-Fluor, 17.5 h; at 92.4 µM (top of the series)
In short: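 PGC/ERR cells were seeded at 2,000 cells/well and left 6 hours at 37 C/5% CO2 before pin-tool addition of compounds in DMSO. After 17.5 hours at 37 C, CellTiter-Fluor was added and fluorescence read 30 minutes later.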

[5] = qHTS assay to identify small molecule antagonists of the estrogen related receptor signaling pathway with the pleiotropic PPARgamma coactivator (PGC) from Tox21 10K library (AID 1224841; call rule not given here; note: actives are mostly falling curves and most rising ones were filed inactive; nearly all actives have a fitted effect of over 50% in size)
[6] = qHTS assay to identify small molecule agonists of the hypoxia (HIF-1) signaling pathway - cell viability counter screen (AID 1224844; calls by dose curve; note: nearly all actives have a fitted effect of over 50% in size); details: HRE-bla ME-180 viability, CellTiter-Glo luminescence, 17 h; at 76.8 µM (top of the series) unless noted
In short: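 HRE-bla ME-180 cells in medium with 0.5% dialyzed FBS were preincubated 5 hrs at 37C, exposed to compounds for 17 hrs, then viability was read as CellTiter-Glo luminescence after 30 min at room temperature, in the reporter wells.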

[7] = qHTS assay to identify small molecule agonists of the hypoxia (HIF-1) signaling pathway (AID 1224846; active = well fitted activation curve with a large enough effect in the signal ratio in the repeat runs, not every such curve was filed as active; the % refers to the signal ratio); details: HRE-bla ME-180 cells, beta-lactamase ratio, 17 h; at 76.8 µM (top of the series)
In short: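 HRE-bla ME-180 cells (beta-lactamase reporter under hypoxia response element) were plated at 2,000 cells/well in medium with 0.5% dialyzed FBS, rested 5 hrs, then given compounds in DMSO for 17 hrs at 37C, 5% CO2. Reporter induction was read with CCF4-AM FRET substrate.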

[8] = qHTS assay to identify small molecule agonists of H2AX - cell viability counter screen (AID 1224847; calls by dose curve;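 note: wild-type CHO-K1 cells; top concentration of the series differs between compounds; nearly all actives have a fitted effect of over 30% in size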); details: CHO-K1 viability, CellTiter-Glo luminescence, 3 h; at 154 µM (top of the series) unless noted
In short: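 For this counter screen, overnight-attached CHO-K1 cells received test compounds (15 concentrations, 0.76% DMSO final); 3 hr later at 37C, CellTiter-Glo reagent was added and luminescence recorded after 30 min at room temperature.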

[9] = qHTS assay to identify small molecule antagonists of the estrogen related receptor (ERR) signaling pathway from Tox21 library (AID 1224848); note: nearly all actives have a fitted effect of over 50% in size
In short: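 Luminescent reporter read-out (ONE-Glo) from NTP's ERR cell line after 18 h treatment at 37 C with DMSO-dissolved Tox21 compounds; cells pre-plated 6 h beforehand at 2,000 per well.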

[10] = qHTS assay to identify small molecule agonists of the estrogen related receptor (ERR) signaling pathway from Tox21 library (AID 1224849; calls by dose curve; note: nearly all actives have a fitted effect of over 15% in size); details: ERR reporter cell line, ONE-Glo luciferase, 18 h; at 92.4 µM (top of the series)
In short: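 ERR reporter cell line (NTP) seeded, rested 6 h at 37 C/5% CO2, then pinned with Tox21 compounds in DMSO. After 18 h at 37 C, ONE-Glo luciferase luminescence was read following 30 min at room temperature.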

[11] = qHTS RealTime-Glo MT Cell Viability Assay in HepG2 cells - 24 hour (AID 1224867); details: RealTime-Glo luminescence, at 76.8 µM (top of the series); note: nearly all actives have a fitted effect of over 50% in size
In short: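 Viability was tracked continuously by NanoLuc luminescence from prosubstrate reduced by living HepG2 cells, at successive time points over 40 h of compound exposure. Cells with reagent were preincubated 5 h at 37 °C before compound addition.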

[12] = qHTS RealTime-Glo MT Cell Viability Assay in HEK293 cells - 32 hour (AID 1224868); details: RealTime-Glo luminescence, at 76.8 µM (top of the series)
In short: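 Viability tracked continuously by luminescence as live cells reduce a prosubstrate for NanoLuc; HEK293 cells preincubated 5 h, compound-treated at 37 C, and read at 0, 8, 16, 24, 32 and 40 h.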

[13] = A CellTox Green Cytotoxicity Assay to monitor cytotoxicity in HEK293 cells - 0 hour (AID 1224869); note: nearly all actives have a fitted effect of over 50% in size
In short: (§1)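 HEK293 cells premixed with CellTox Green dye were seeded at 600 cells/well and left 5 h at 37 C/5% CO2 before pin transfer of 23 nL compound in DMSO. Fluorescence from dye bound to dead-cell DNA was read during 40 h treatment.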

[14] = qHTS RealTime-Glo MT Cell Viability Assay in HepG2 cells - 8 hour (AID 1224873); details: RealTime-Glo luminescence; at 76.8 µM (top of the series) unless noted; note: nearly all actives have a fitted effect of over 55% in size
In short: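 HepG2 cells (600/well) mixed with RealTime-Glo MT reagent, settled 5 h at 37 C/5% CO2 before compound addition. Nonlytic NanoLuc luminescence from viable-cell prosubstrate reduction read repeatedly during 40 h treatment at 37 C.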

[15] = A CellTox Green Cytotoxicity Assay to monitor cytotoxicity in HEK293 cells - 24 hour (AID 1224875); note: nearly all actives have a fitted effect of over 45% in size
In short: as §1

[16] = qHTS assay to identify small molecule antagonists of the estrogen related receptor (ERR) signaling pathway from Tox21 library - cell viability counter screen (AID 1224834); details: ERR reporter cells viability, CellTiter-Fluor, 17.5 h; at 92.4 µM (top of the series); note: nearly all actives have a fitted effect of over 30% in size
In short: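 ERR reporter cells were plated 6 h before compound addition, then exposed to test compounds in DMSO for 17.5 h at 37 C. Viability was read as CellTiter-Fluor fluorescence after a 30-minute incubation at 37 C.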

[17] = qHTS assay to identify small molecule agonists of the estrogen related receptor signaling pathway with the pleiotropic PPARgamma coactivator (PGC) from Tox21 10K library (AID 1224842); details: PGC/ERR reporter cell line, luciferase ONE-Glo, 18 h; at 92.4 µM (top of the series); note: nearly all actives have a fitted effect of over 15% in size
In short: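 PGC/ERR reporter cell line, 2,000 cells per well, incubated 6 h at 37 C before 23 nL compound in DMSO was added. After 18 h at 37 C, One-Glo luminescence read following 30 min at room temperature.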

[18] = target: Thyrotropin receptor (Homo sapiens) (UniProt P16473); assay: qHTS assay to identify small molecule agonists of the thyroid stimulating hormone receptor (TSHR) signaling pathway (AID 1224843; calls by dose curve; note: nearly all actives have a fitted effect of over 45% in size); details: TSHR-HEK293 cells, cAMP HTRF, agonist mode, 30 min; at 92.4 µM (top of the series)
[19] = target: Nuclear receptor subfamily 1 group I member 3 (Homo sapiens) (UniProt Q14994); assay: qHTS assay to identify small molecule antagonists of the constitutive androstane receptor (CAR) signaling pathway (AID 1224838); details: HepG2-CYP2B6-hCAR luciferase, CITCO-stimulated, 24 h; at 92.4 µM (top of the series); note: nearly all actives have a fitted effect of over 40% in size
[20] = target: Nuclear receptor subfamily 1 group I member 3 (Homo sapiens) (UniProt Q14994); assay: qHTS assay to identify small molecule agonists of the constitutive androstane receptor (CAR) signaling pathway (AID 1224839);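 note: HepG2 cells stably carrying human CAR and a CYP2B6 luciferase reporter; nearly all actives have a fitted effect of over 15% in size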
% is set by controls: 0 for no effect and ±100 for the full control effect.

CCN(CC)CCCl
inactive: Potency [1] | viability change, negative = cytotoxic [2] 8.39% | activity change, negative = cytotoxicity [3] 7.72% | viability change, negative = cytotoxic [4] -18% | Potency [5] | activity change, negative = cytotoxicity [6] -14.1% | activation [7] -0.323% | activity change, negative = cytotoxicity [8] 0.657% | Potency [9] | activity change, positive = activation [10] 10.4% | activity change, negative = cytotoxicity [11] -0.145% | activity change, negative = cytotoxic [12] 6.7% | Potency [13] | viability change, negative = cytotoxic [14] 1.19% | Potency [15]

COP(C)(=O)OC
inactive: viability change, negative = cytotoxic [16] 0.827% and -1.2% | Potency [1] | viability change, negative = cytotoxic [2] -6.92% and 1.24% | activity change, negative = cytotoxicity [3] -2.15% and -6.06% | viability change, negative = cytotoxic [4] 7.32% and -5.07% | Potency [5] | activation [17] -0.782% and -0.243% | activation [18] -2.7% and 2.68% | activity change, negative = cytotoxicity [6] 6.31% | activation [7] 0.521% and -2.16% | activity change, negative = cytotoxicity [8] -0.386% and -0.037% | Potency [9] | activity change, positive = activation [10] -2.54% and 18.4% | activity change, negative = cytotoxicity [11] -0.247% and -0.532% | activity change, negative = cytotoxic [12] 1.14% and 2.99% | Potency [13] | viability change, negative = cytotoxic [14] -0.324% and -3.66% | Potency [15]

[NH4+].[O-][Cl+3]([O-])([O-])[O-]
inactive: viability change, negative = cytotoxic [16] 1.96% and 0.51% | Potency [1] | viability change, negative = cytotoxic [2] 10% and 0.208% | activity change, negative = cytotoxicity [3] 3.13% and 1.22% | viability change, negative = cytotoxic [4] -1.03% and -7.77% | activity change, negative = cytotoxicity [6] 3.91% and 1.39% | activation [7] -0.0415% and -0.822% | activity change, negative = cytotoxicity [8] 3.42% and 0.149% | activity change, negative = cytotoxicity [11] 0.18% and 1.45% | activity change, negative = cytotoxic [12] 0.662% and 1.04% | Potency [15]

N#CBr
inactive: viability change, negative = cytotoxic [16] 3.45% | Potency [1] | viability change, negative = cytotoxic [2] 1.67% | activity change, negative = cytotoxicity [3] 5.01% | activity, negative = inhibition [19] 4.27% | Potency [20] | viability change, negative = cytotoxic [4] 2.42% | activation [17] 2.96% | activation [18] 2.05% | activity change, negative = cytotoxicity [6] 7.17% | activation [7] 0% | activity change, negative = cytotoxicity [8] 0.761% | Potency [9] | activity change, positive = activation [10] 0.168% | activity change, negative = cytotoxicity [11] 3.42% | activity change, negative = cytotoxic [12] 13.2% | Potency [13] | viability change, negative = cytotoxic [14] -8.41% | Potency [15]

N=C(N)N[N+](=O)[O-]
inactive: viability change, negative = cytotoxic [16] 3.1% | Potency [1] | viability change, negative = cytotoxic [2] 1.63% | activity change, negative = cytotoxicity [3] 3% | activity, negative = inhibition [19] -6.42% | Potency [20] | Potency [5] | activation [18] 0.85% | activity change, negative = cytotoxicity [6] 4.43% | activation [7] 0.72% | activity change, negative = cytotoxicity [8] -0.338% | Potency [9] | activity change, positive = activation [10] -3.9% | activity change, negative = cytotoxicity [11] 0.0338% | activity change, negative = cytotoxic [12] -5.06% | Potency [13] | viability change, negative = cytotoxic [14] -0.0372% | Potency [15]
